The values that follow are results of earlier work, collected in publication PMC10883292, “Estrogen Receptor Mutations as Novel Targets for Immunotherapy in Metastatic Estrogen Receptor–positive Breast Cancer” (Cancer Research Communications, 2024).

For series [1], the system named is HER2-low-expressing cancer. As to conditions: multicenter phase III, HER2-low (1–2+ by IHC); cited from earlier work. The text has this:
(§1) Our findings pave the way for the development of ESR1 targeted immunotherapy. One approach could be vaccine development, as we were able to expand CD8^+ T cells to target these five novel peptides. […] E75, a nanomeric peptide derived from HER2, has been used in multiple clinical trials for breast, ovarian, and gastric cancers, many of which were led by our group.

Series [2] deals with high-risk HER2+ breast cancer. As to conditions: 187 patients, adjuvant setting; cited from earlier work.
Text: as §1

Take “E75: nanomeric peptide derived from HER2, used as vaccine”: the “clinical benefit as monotherapy” value in series [1] was “failed to demonstrate the clinical benefit”. The “reduction of relative risk of recurrence” value in series [2] was 48%.
